Data taken from article PMC9887206, “Cationic biopolymer decorated Asiatic Acid and Centella asiatica extract incorporated liposomes for treating early-stage Alzheimer’s disease: An In-vitro and In-vivo investigation” (F1000Research, 2022).

Test system: AlCl3-induced AD model in rats
Assay: Histopathology of the brain, neuronal count in hippocampus CA1 and CA3
Format: in vivo, Wistar rats
Conditions: day 90, mean ±SE, n=6
Method: Disease control: AlCl 3 (50 mg/kg) • 3. […] AlCl 3 (50 mg/kg) + CLAA (100 mg/kg)
The rats were euthanized on the 90 ^th day. The brain was perfused using ice-cold normal saline and then dissected to isolate the frontal cortex and hippocampus. Hippocampus was sectioned, and tissue processing was done. The tissue was stained with 0.1 % crystal violet stain and observed under the microscope (Zeiss Primo Star Digital, Germany). Photographs of the CA1 and CA3 areas of the hippocampus were taken, and the number of normal healthy neurons out of 100 neurons was counted with the help of image J software (version 1.53t).

CCN(C)C(=O)Oc1cccc([C@H](C)N(C)C)c1 [Standard, Rivastigmine]
Neuronal count (out of 100) CA1: 50.75±3.70 | Neuronal count (out of 100) CA3: 54.21±1.47
